{"sequences": {"note": "Protein sequences, listed by entry. Tags and fused reporters are not part of them.", "NK2 (h), neurokinin receptor 2 (human (printed as (h))), P21452, UniProt P21452, whole entry": "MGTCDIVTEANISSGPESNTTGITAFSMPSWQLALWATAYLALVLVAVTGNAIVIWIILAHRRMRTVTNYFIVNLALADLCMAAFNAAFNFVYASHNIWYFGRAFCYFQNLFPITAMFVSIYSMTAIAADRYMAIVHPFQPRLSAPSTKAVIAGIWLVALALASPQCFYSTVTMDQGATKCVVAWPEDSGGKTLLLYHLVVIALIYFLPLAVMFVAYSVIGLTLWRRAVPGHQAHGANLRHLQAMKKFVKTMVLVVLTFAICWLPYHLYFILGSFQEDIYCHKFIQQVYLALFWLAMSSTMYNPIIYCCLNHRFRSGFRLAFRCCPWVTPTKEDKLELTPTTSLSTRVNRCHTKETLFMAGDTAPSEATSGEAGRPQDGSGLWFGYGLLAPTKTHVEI"}, "source": "patent US20170119913A1", "target": "NK2 (h), neurokinin receptor 2 (human (printed as (h))), P21452", "test": "Cerep ExpresSProfile radioligand competition binding, reference compound (agonist radioligand)", "data": [{"binder": "DSFVGLL (modifications not checked)", "note": "[[Nleu10]-NKA (4-10)]", "values": [{"measurement": "Ki", "value": 2.5, "unit": "nM"}]}]}
